Reference: US20120059162A1, “FUSED IMIDAZOLE DERIVATIVE HAVING TTK INHIBITORY ACTION” (Oncotherapy Science, Inc., priority 2009, published 2012)
Like-named read-outs stand apart in the source and are kept apart here.

Chains of the proteins cited; added tags and fusions are not shown.
UniProt P33981, whole entry: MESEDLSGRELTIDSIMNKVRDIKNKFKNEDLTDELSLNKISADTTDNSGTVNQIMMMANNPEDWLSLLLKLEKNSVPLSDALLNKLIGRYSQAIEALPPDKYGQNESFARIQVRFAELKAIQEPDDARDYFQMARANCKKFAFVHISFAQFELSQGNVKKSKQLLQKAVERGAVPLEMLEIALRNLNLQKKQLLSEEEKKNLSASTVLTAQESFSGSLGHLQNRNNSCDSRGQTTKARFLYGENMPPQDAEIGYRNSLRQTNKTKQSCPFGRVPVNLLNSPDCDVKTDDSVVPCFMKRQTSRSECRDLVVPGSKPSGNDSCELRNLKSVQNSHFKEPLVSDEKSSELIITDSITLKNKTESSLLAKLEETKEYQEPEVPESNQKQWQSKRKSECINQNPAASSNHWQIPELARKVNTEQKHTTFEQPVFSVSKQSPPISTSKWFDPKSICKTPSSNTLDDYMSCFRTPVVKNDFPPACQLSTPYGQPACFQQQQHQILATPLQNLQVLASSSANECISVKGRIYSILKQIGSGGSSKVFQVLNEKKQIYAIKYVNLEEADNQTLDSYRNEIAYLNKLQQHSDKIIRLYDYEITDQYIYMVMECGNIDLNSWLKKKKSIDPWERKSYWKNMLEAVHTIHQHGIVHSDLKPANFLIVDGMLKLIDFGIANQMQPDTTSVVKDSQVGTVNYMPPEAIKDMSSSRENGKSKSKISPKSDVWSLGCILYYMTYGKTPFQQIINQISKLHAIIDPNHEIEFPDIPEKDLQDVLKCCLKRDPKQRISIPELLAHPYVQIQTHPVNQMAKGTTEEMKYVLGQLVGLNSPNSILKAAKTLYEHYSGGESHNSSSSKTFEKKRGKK

Biological target: TTK (Homo sapiens, UniProt P33981)
Assay: TTK assay: screening of TTK kinase activity suppressing action using p38 MAPK peptide
Format: biochemical
Conditions: read-out: TTK IC50

| IC50 [nM] | IC50 (p38 MAPK peptide substrate) [nM] | Compound |
| --- | --- | --- |
| 4.4 | – | O=C(NC1CC1)c1ccc(-c2cnc3c(NCC4CCOCC4)cc(-c4ccc(C(F)(F)F)cc4)nn23)cc1 |
| – | 13.6 | COC(=O)CCCNc1cc(NC2CCCCC2)nn2c(-c3ccc(C(=O)NC4CC4)cc3)cnc12 |
| – | 8.6 | CC[C@H](C)Nc1cc(NCC2CCOCC2)c2ncc(-c3ccc(C(=O)NC4CC4)cc3)n2n1 |
| – | 19.3 | N#Cc1ccc(-c2cn3c(-c4ccc(C(=O)NC5CC5)cc4)cnc3c(NCC3CCC(CN)CC3)n2)cc1 (stereo not shown) |
